Data taken from patent US9856239B1, “Carboxylic acid compound, method for preparation thereof, and use thereof” (INVENTISBIO SHANGHAI LTD., priority 2014, dated 2018).

Chains of the proteins cited; added tags and fusions are not shown.
UniProt Q96S37, whole entry: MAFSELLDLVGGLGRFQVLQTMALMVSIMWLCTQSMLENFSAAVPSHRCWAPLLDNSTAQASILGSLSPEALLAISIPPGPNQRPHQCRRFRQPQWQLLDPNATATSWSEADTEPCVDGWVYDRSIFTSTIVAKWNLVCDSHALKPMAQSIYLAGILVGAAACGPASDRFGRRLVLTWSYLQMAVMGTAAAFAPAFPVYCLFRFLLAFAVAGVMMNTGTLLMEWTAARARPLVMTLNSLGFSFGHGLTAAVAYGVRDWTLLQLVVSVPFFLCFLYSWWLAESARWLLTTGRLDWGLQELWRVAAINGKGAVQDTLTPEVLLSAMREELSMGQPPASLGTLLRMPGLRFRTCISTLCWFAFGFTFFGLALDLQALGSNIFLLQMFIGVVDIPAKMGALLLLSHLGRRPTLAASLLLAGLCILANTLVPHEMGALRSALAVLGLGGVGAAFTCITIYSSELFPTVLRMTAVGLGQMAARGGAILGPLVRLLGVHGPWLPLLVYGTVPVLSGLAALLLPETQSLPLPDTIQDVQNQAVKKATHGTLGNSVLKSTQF

Biological target: human URAT1 (Homo sapiens (Human), UniProt Q96S37)
Experiment: Inhibition of 14C-uric acid absorption in URAT1 cell model (HEK-293T cells transfected with human URAT1)
Type: cell-based
Conditions: read-out: URAT1 IC50 Activity level; HEK-293T cells transfected with human URAT1, 14C-uric acid uptake, 5 min, 37 degrees

Molecule `N#Cc1ccc(-c2cc(F)ccc2SCC2(CC(=O)O)CC2)cc1` has an IC50 of under 100 nM.
